Earlier results, collected in publication PMC9335916 (ACS Central Science, 2022).

Biological target: beta-lactoglobulin, genetic variant B (BLG) none (natural genetic variant B) (UniProt P02754)
Assay: not stated
Settings: cited from earlier work

beta-lactoglobulin, genetic variant B (BLG) none (natural genetic variant B)
Kd, dimer dissociation (pH 6.5): 4 µM
Kd, dimer dissociation (pH 6.9, ionic strength of 0.13, phosphate buffer (concentration not stated)): 7 µM
Kd, dimer dissociation (pH 7.5): 8.6 µM
